Data from patent publication US20090074761A1, “Therapeutic beta-glucan combinations” (priority 2007, published 2009).

Tested on: SKOV-3 cells
Type: cell-based, human
Procedure: As described above, β-glucan functions with anti-tumor antibodies to activate complement receptor 3 (CR3) and recruit neutrophils that mediate CR3 (iC3b-receptor)-dependent cytotoxicity of tumors coated with iC3b. […] SKOV-3 cells were incubated with anti-VEGF mAb or anti-Her-2/neu mAb in the presence of human complement. Cells were then washed and co-cultured with human neutrophils (E:T ratio=20:1) in the presence of soluble β-glucan. Cytotoxicity was calculated as in Li et al., J Immunol 177:1661-1669. […] Anti-Her-2/neu mAb (trastuzumab) (B) was used as a positive control since SKOV-3 cells overexpress HER2/neu.

## trastuzumab
  synergy with β-glucan to elicit CR3-dependent cellular cytotoxicity (CR3-DCC): synergized with β-glucan
